Assay results: US11478457B2, “Castration-resistant prostate cancer” (priority 2015, dated 2022)

Chains of the proteins cited; added tags and fusions are not shown. Lines headed by an entry give the natural chain unless they say otherwise; changes in a name come on top.
UniProt O60701: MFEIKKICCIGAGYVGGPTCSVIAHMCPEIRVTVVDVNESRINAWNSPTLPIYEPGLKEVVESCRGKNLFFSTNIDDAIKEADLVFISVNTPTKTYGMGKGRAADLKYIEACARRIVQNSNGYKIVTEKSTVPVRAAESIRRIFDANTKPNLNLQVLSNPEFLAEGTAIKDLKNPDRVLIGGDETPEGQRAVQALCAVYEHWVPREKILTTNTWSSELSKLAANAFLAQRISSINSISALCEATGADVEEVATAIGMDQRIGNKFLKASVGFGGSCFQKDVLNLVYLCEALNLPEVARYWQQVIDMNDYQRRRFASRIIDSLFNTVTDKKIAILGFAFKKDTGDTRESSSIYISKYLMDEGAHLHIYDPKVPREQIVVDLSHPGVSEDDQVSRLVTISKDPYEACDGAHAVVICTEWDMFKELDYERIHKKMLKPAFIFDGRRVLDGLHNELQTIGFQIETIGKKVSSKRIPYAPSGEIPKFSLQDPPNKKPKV

Target: UDP-glucose dehydrogenase (Homo sapiens, UniProt O60701)
Assay: High throughput screening for inhibitors of UDP-glucose dehydrogenase (NADH fluorescence)
Type: biochemical
Settings: compound plates 20 μL/well of 25 μg/mL compound in 2.5% DMSO; relative to DMSO negative and UDP-xylose positive controls; higher POC = more inhibitory

Row | Structure (SMILES) | POC (Percent of Controls) [%]
1 | C1CN(c2nonc2-[n+]2nc3nonc3[n-]2)CCO1 | 105
2 | Cc1c2no[n+]([O-])c2c(C)[n+]([O-])[n+]1[O-] | 63
